# From US9102688B2, “Sulfonaminoquinoline hepcidin antagonists” (Vifor (International) AG, priority 2011, dated 2015)
# Protein sequences, listed by entry. Tags and fused reporters are not part of them.
# UniProt Q9NP59, whole entry: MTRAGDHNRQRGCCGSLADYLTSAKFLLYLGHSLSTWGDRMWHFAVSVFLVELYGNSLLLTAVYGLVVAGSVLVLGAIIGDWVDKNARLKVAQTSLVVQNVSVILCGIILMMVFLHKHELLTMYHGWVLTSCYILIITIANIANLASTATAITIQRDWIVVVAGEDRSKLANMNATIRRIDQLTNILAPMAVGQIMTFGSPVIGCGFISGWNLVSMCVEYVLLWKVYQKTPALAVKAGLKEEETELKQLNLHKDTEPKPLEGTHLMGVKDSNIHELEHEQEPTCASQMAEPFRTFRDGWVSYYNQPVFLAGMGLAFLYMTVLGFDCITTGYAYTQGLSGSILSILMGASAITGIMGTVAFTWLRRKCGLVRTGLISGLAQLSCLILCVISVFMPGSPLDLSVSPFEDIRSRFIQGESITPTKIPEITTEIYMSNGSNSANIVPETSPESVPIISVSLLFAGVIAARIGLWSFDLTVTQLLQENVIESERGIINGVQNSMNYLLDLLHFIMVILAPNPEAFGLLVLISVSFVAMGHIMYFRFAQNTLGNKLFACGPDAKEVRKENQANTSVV
# Target: human ferroportin (Homo sapiens, UniProt Q9NP59)
# Assay: ferroportin internalization assay (inhibition of hepcidin-induced internalization of Fpn)
# Conditions: read-out: Ferroportin/ IC50 μM; MDCK-FPN-HaloTag cells, 100 nM hepcidin, overnight incubation; concentration range from 0.04 to 40 μM
# Procedure: The hepcidin-antagonistic action of the sulfonaminoquinoline compounds of the present invention was determined by means of the “ferroportin internalization assay” described in the following.
# Organic compounds of low molecular weight which counteract the biological actions of hepcidin on its receptor, the iron exporter ferroportin (Fpn), were identified on the basis of their ability to inhibit hepcidin-induced internalization of Fpn in living cells. For this purpose, a stable cell line (Madin-Darby canine kidney, MDCK) was produced which constitutively expresses human ferroportin fused recombinantly at its C terminus with a fluorescent reporter protein (HaloTag®, Promega Corp.). The internalization of Fpn was monitored by labelling these cells with fluorescent ligands (HaloTag®-TMR, tetramethylrhodamine) which join covalently on to the HaloTag reporter gene fused with the Fpn. […] Optimized image analysis algorithms were used to ascertain the cell surface and to quantify the corresponding membrane fluorescence associated with the Fpn-HaloTag fusion protein. This assay allows a quantitative image-based analysis in order to quickly evaluate compounds which can block hepcidin-induced internalization of Fpn. […]
compound,measurement,value
O=S(=O)(Nc1cccc2ccccc12)c1ccc(Br)s1,IC50,6.8 µM
